Wnt act – Wnt/beta-catenin pathway activators, primary screen, cell-based, plate reader, single point; Wnt/beta-catenin reporter cell assay, activator; activation, % at 9.35 µM; 300,000 tested, 1.2% active; AID 743398, 2014; in the data active = activation above about 30%, passing the limit was not always enough; inconclusive = no clear call, values can overlap the other calls
Yeast UUG start – alters start codon recognition fidelity in yeast | S. cerevisiae UUG-firefly luciferase reporter, luminescence/redox ratio | activity score, % at 18.7 µM | 350,000 compounds, 0.13% hits | AID 602363;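 active = replicate mean at a twofold rise or more, about +100% in these data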;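 note: firefly luciferase made from a UUG start codon reports start codon fidelity; reporter light over untreated wells divided by growth signal over untreated wells; some hits fall short of that in this replicate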
MITF act – activators of MITF-driven TRPM1 promoter reporter, primary screen, cell-based, SK-MEL-5, luciferase, single point | SK-MEL-5 TRPM1-promoter luciferase, 24 h; % of positive control, neutral wells = 0 | activation, % at 12.5 µM | 300,000 tested, 0.75% active;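 active = mean activation of at least 80% with every replicate also reaching 80%; inconclusive = mean reaches 80% but some replicate falls short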
esBAF inh – Bmi1 luciferase reporter increase in mESCs, primary screen, esBAF inhibitor project, mouse ES cells, Bmi1 luciferase knock-in, single point; 24 h; 100% = twice the neutral-well signal; reporter increase, % at 12.5 µM; 350,000 tested, 2% active; AID 602393, 2012; in the data active = activation above about 40%; inconclusive = no clear call, values can overlap the other calls;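 also: a rise in the Bmi1 reporter signal indicates esBAF inhibition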
PglD inh – C. jejuni PglD acetyltransferase inhibitors, primary screen, biochemical, DTNB colorimetric, single point; UDP-N-acetylbacillosamine N-acetyltransferase PglD (Campylobacter jejuni); 360,000 tested, 0.098% active; purified PglD enzyme, DTNB colorimetric CoA detection; inhibition, % at 12.5 µM; in the data active = inhibition above about 16%, passing the limit was not always enough; inconclusive = no clear call, values can overlap the other calls
miR122 inh – miR-122 Renilla sensor signal increase in Huh7, primary screen, miR-122 inhibitor project, cell-based, single point, plate reader; AID 602342, 2012; activation (reporter increase), % at 12.5 µM; Huh7 miR-122 Renilla luciferase sensor, 48 h; neutral wells = 0, positive control = 100; 340,000 tested, 0.3% active;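 active = mean replicate activation score at least 90 and every replicate individually at or above 90; inconclusive = only one of the two criteria met; inactive = neither criterion met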;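 also: higher luciferase means less miR-122 activity so hits act as miR-122 inhibitors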
Of the large screens only hits and unclear results are named; the others gave an inactive call. Hits are enriched below; roughly 2.8% of the tested compounds scored in any of these assays.

CCCN1C[C@H](C)[C@H](OC)CN(C)C(=O)c2ccc(NC(=O)c3ccc(F)cc3)cc2OC[C@@H]1C	none (no result: Wnt act, Yeast UUG start, MITF act)
Cc1cc(NS(=O)(=O)c2ccc(NC(=O)Nc3cccc(Cl)c3)cc2)no1	none (no result: MITF act)
Cc1cc(NS(=O)(=O)c2ccc(NC(=O)Nc3ccc4c(c3)OCO4)cc2)no1	esBAF inh 42 (no result: Wnt act, Yeast UUG start, PglD inh)
CNC(=O)COc1coc(CN2CCN(C(=O)c3ccco3)CC2)cc1=O	Wnt act 35 (no result: miR122 inh)
COc1ccc(Cc2nc(-c3ccc(Br)o3)no2)cc1OC	esBAF inh 49
COc1ccc(-c2noc(-c3ccc(Br)o3)n2)cc1OC	esBAF inh 54 (no result: MITF act)
COc1cc(-c2nc(-c3ccc(Br)o3)no2)cc(OC)c1OC	none (no result: MITF act, PglD inh)
COc1ccc(CN(C)C[C@H]2OCCCC[C@@H](C)Oc3ccc(NS(=O)(=O)c4ccc(C)cc4)cc3C(=O)N([C@H](C)CO)C[C@H]2C)cc1	none (no result: Wnt act, MITF act)
C[C@@H]1CCCCO[C@@H](CN(C)C(=O)c2ccccc2)[C@H](C)CN([C@H](C)CO)C(=O)c2cc(NC(=O)Nc3ccc4c(c3)OCO4)ccc2O1	none (no result: Wnt act, MITF act)
O=C(C[C@@H]1C=C[C@@H](NC(=O)c2cccc(F)c2)[C@@H](CO)O1)NCc1ccccc1	none (no result: Wnt act, MITF act)
CC(C)NC(=O)N(C)C[C@@H]1Oc2ccc(NC(=O)Nc3ccccc3)cc2CC(=O)N([C@H](C)CO)C[C@@H]1C	none (no result: Wnt act, MITF act)
O=C(N/N=C/c1ccc(OC(=O)c2ccccc2)cc1)c1cccc(O)c1	Wnt act 47 (no result: Yeast UUG start, esBAF inh, PglD inh, miR122 inh)
O=C(Oc1ccc(/C=N/NC(=O)c2ccccc2F)cc1)c1ccccc1	esBAF inh 47 (no result: miR122 inh)
Cc1[nH]c2ccccc2c(=O)c1CN(C)Cc1ccccc1	esBAF inh 57
CCC(C)C(=O)N1CCc2cc(-c3csc(N)n3)ccc21 (stereo not drawn)	esBAF inh 53 (no result: Wnt act)
CC(C)(C)C(=O)N1CCc2cc(-c3csc(N)n3)ccc21	none (no result: Wnt act)
CCC(=O)Nc1ccc2c(c1)C(=O)N(C)C[C@@H](OC)[C@H](C)CN(Cc1ccccc1C(=O)O)[C@H](C)CO2	none (no result: Wnt act, MITF act, miR122 inh)
CNC[C@@H]1Oc2cc(C#CCN(C)C)ccc2S(=O)(=O)N([C@H](C)CO)C[C@H]1C	none (no result: Wnt act, MITF act)
Cc1cc(C(=O)Cn2nc(C(=O)O)c3ccccc3c2=O)c(C)n1-c1cccc(C(F)(F)F)c1	none
Cc1cc(C(=O)Cn2nc(C(=O)O)c3ccccc3c2=O)c(C)n1-c1ccc(F)cc1	esBAF inh 48 (no result: Yeast UUG start, PglD inh)
O=C(NNC(=O)c1ccccc1O)c1cccc(Br)c1	esBAF inh 46 (no result: MITF act)
C=CCNC(=O)[C@@H]1[C@H]2C(=O)O[C@H](c3ccccc3)[C@H](c3ccccc3)N2[C@H](c2ccccc2OCCO)[C@@]12C(=O)N(C(=O)OCCOC)c1ccccc12	none (no result: Wnt act, MITF act, esBAF inh, miR122 inh)
C[C@H](CO)N1C[C@H](C)[C@H](CN(C)C(=O)c2ccncc2)Oc2cc(-c3cccc(C#N)c3)ccc2S1(=O)=O	none (no result: Wnt act, MITF act)
COC(=O)N1CCc2c(sc(NC(=O)C3COc4ccccc4O3)c2C(N)=O)C1 (stereo not drawn)	esBAF inh 50
COc1ccc2c(c1)CCc1c(C(=O)NC3CCCCC3)noc1-2	MITF act 91 (no result: Wnt act)
COc1ccc2c(c1)CCc1c(C(=O)NCc3ccco3)noc1-2	MITF act 100, esBAF inh 42 (no result: Yeast UUG start, PglD inh)
COc1ccc2c(c1)CCc1c(C(=O)N(C)c3ccccc3)noc1-2	Wnt act inconclusive, esBAF inh 56
O=C(Nc1nnc(-c2cccs2)s1)c1cccc(F)c1	Wnt act 39, esBAF inh 60 (no result: PglD inh)
O=C(Nc1nnc(S(=O)(=O)N2CCOCC2)s1)c1cccc(F)c1	esBAF inh 58 (no result: MITF act)
O=C(CN1CCCC1)Nc1nnc(-c2cccs2)s1	none (no result: Yeast UUG start, esBAF inh, PglD inh, miR122 inh)
Cc1nnc(NC(=O)c2cccc(F)c2)s1	none (no result: Wnt act, miR122 inh)
COc1ccc(NC(=O)Nc2nnc(-c3cccs3)s2)cc1	Wnt act 41, MITF act 98 (no result: Yeast UUG start, esBAF inh, PglD inh, miR122 inh)
CC(C)(C)CC(=O)Nc1nnc(-c2cccs2)s1	Wnt act 52, esBAF inh 48
COCc1cn(CC[C@H]2CC[C@@H](NC(=O)Cc3cccnc3)[C@@H](CO)O2)nn1	none (no result: Wnt act, MITF act, miR122 inh)
CC(C)C(=O)Nc1ccc2c(c1)C(=O)N(C)[C@H]1CC[C@@H](CC(=O)NCc3ccc(F)cc3)O[C@H]1CO2	none (no result: Wnt act, MITF act)
C[C@@H]1CCCCO[C@@H](CN(C)C(=O)CCCN(C)C)[C@@H](C)CN([C@H](C)CO)C(=O)c2cc(NC(=O)c3ccncc3)ccc2O1	none (no result: Wnt act, MITF act)
C[C@@H]1CCCCO[C@H](CN(C)Cc2ccncc2)[C@@H](C)CN([C@@H](C)CO)C(=O)c2cc(NS(C)(=O)=O)ccc2O1	none (no result: Wnt act, MITF act)
Cc1c(C(=O)/C=C/c2cccs2)oc2ccc(F)cc12	esBAF inh 63 (no result: Wnt act)
Cc1c(C(=O)Nc2nccs2)oc2ccc(F)cc12	Wnt act 38 (no result: miR122 inh)
Cc1c(C(=O)Nc2nccs2)oc2ccc(Br)cc12	esBAF inh 72
C[C@H](CO)N1C[C@H](C)[C@@H](CN(C)C(=O)Nc2ccc3c(c2)OCO3)Oc2ccc(NS(C)(=O)=O)cc2C1=O	none (no result: Wnt act, MITF act)
O=c1c2ccccc2oc2c1ccc1ccccc12	MITF act 90, esBAF inh 72 (no result: Wnt act)
O=c1c2ccccc2oc2ccccc12	none (no result: MITF act)
CCC(C)NC(=O)c1cc2cc3ccc(OC)cc3nc2s1 (stereo not drawn)	Wnt act 45
O=C(C[C@H]1CC[C@@H]2[C@H](COC[C@@H](O)CN2Cc2ccc3c(c2)OCO3)O1)Nc1ccccc1	none (no result: Wnt act, Yeast UUG start, MITF act)
COc1ccc2oc(C(=O)NN3C(C)CCCC3C)c(C)c2c1 (stereo not drawn)	none (no result: Yeast UUG start, esBAF inh, PglD inh, miR122 inh)
COc1ccc2oc(C(=O)NC3CCCCC3)c(C)c2c1	MITF act 112, esBAF inh inconclusive
Cc1c(C(=O)NC2CCCCC2)oc2ccc(F)cc12	esBAF inh 43
Cc1ccc2oc(C(=O)NC3CCS(=O)(=O)C3)c(C)c2c1 (stereo not drawn)	none (no result: esBAF inh)
Fc1ccccc1-c1cc2ccccc2cn1	Wnt act 36, esBAF inh 61
Fc1ccc2cnc(-c3ccccc3F)cc2c1	esBAF inh 54
COc1cc2cnc(-c3ccccc3F)cc2cc1OC	none
Fc1ccc2cc(-c3ccccc3F)ncc2c1	Wnt act inconclusive, esBAF inh 63
Cc1c(Cl)cccc1Nc1nc(N)nc(CSc2ncccn2)n1	esBAF inh 52
c1ccc(CCCNc2ncnc3nc[nH]c23)cc1	none (no result: MITF act)
CCc1ccc(Nc2ncnc3nc[nH]c23)cc1	Wnt act 47, MITF act 96
CCCCc1ccc(Nc2ncnc3nc[nH]c23)cc1	MITF act 105
